Literature values in paper PMC11599114 (Viruses, 2024).

What was measured:
Parameters in all cases: method as in ref 35216177
HSV-1 = conditions: HSV-1, Vero
HSV-2 = conditions: HSV-2, Vero
Measles virus(MeV) = conditions: VERO/hSLAM
HCoV-229E = conditions: Vero
HPIV-3 = conditions: HPIV-3, Vero

Substance	IC50 (HSV-1)	IC50 (HSV-2)	IC50 (Measles virus(MeV))	other results
FVPWFSKFlwRIL [DRAVPe00386]	1.86 µM	0.58 µM		
FVPWFSKFlXRILGGC [DRAVPe00390]	9.54 µM		40.9 µM	
FVPWFSKFlpRIL [DRAVPe00379]	> 50 µM	> 50 µM		IC90 (HSV-1): > 50 µM; IC90 (HSV-2): > 50 µM
FVPWFSKFlGRIL [DRAVPe00377]	9.99 µM	8.86 µM		IC50 (HCoV-229E): 7.76 µM
FVPWFSKFlXRILC [DRAVPe00389]	6.4 µM		39.1 µM	
FVPWFSKFlXRIL [DRAVPe00380]	7.73 µM	9.61 µM		IC50 (HPIV-3): > 50 µM; IC90 (HPIV-3): > 50 µM
FVPWFSKFlWRIL [DRAVPe00385]	3.01 µM	0.77 µM		
CGGFVPWFSKFlXRIL [DRAVPe00392]	2.32 µM		28.9 µM	
FVPWFSKFlkRIL [DRAVPe00384]	3.53 µM	2.8 µM		
CFVPWFSKFlXRIL [DRAVPe00391]	0.89 µM		22.3 µM	
FVPWFSKFlKRIL [DRAVPe00383]	2.49 µM	1 µM		
FVPWFSKFlxRIL [DRAVPe00382]	3.65 µM	3.13 µM		IC50 (HPIV-3): > 50 µM; IC90 (HPIV-3): > 50 µM
FVPWFSKFlPRIL [DRAVPe00378]	7.7 µM	9.83 µM		
